# Tested on: Epstein-Barr virus and Herpes 1 virus
# Experiment: Case Study 6: person with severe depression, IBS, brain fog, fatigue, headaches, SPECT
# Format: in vivo, human
# Conditions: patient history before antiviral treatment
# Text: Scale illustrates levels of perfusion in a different manner from FIG. 1. The dark grey central portion of the scale illustrates statistically normal perfusion in a given area relative to a normative database. Areas of progressively lighter grey to white illustrate areas which are 2 standard deviation (SD), 3 SD, and 4 SD below the mean of the normative database, respectively.
# A person presented with a history of depression since their teen years. They were severely depressed upon presentation (Quick Inventory of Depressive Symptomatology scale 26/27) and spent most of their time in their bedroom in the basement of their parent's house. They had withdrawn from college and had never held a full-time job. Their condition was complicated by irritable bowel syndrome, brain fog, pervasive fatigue, and headaches. […] The patient also underwent a functional brain scan (single photon emission computed tomography—SPECT). […] The patient was started on the antiviral valacyclovir at 1000 mg two times per day orally. […] NTZ was added at a dose of 500 mg two times per day orally. After one month, the dose of NTZ was increased to 1000 mg two times per day orally.
structure (smiles),measurement,value
CNC1(c2ccccc2Cl)CCCCC1=O (stereo not shown) [ketamine],response of depression to earlier therapy,failed to respond

# — US20240285589A1, “TREATMENT USING AN ANTIVIRAL COMPOUND AND NITAZOXANIDE” (priority 2021, published 2024)
